These results are taken from US7166688B1, “Chelation compositions” (LidoChem, Inc., priority 2000, dated 2007).

For series [1] the following is noted: one drop 17% zinc nitrate, one drop iron nitrate, 0.1 gram copper sulfate, 10 grams potassium phosphate in one liter water, compounds added drop wise until clear; 10 ml added to 100 ml water.
Series [2] can be described thus: Iron chelation, clear solution / precipitate test. The series is classed as physicochemical. Conditions: five drops 1.8 M ferric nitrate and 10 grams potassium phosphate in one liter water, compound added drop wise until clear; 10 ml added to 1000 ml water.

Like-named read-outs stand apart in the source and are kept apart here.

In the case of “potassium salt of succinic—2—aminoethanol, ethanolsuccinicamide [Example 2]”, the “precipitate formation on dilution and standing” value in series [1] and in series [2] was “No precipitates were formed” throughout.
